We go through 1 compound from ChEMBL document CHEMBL3639038, “Fused pyridine, pyrimidine and triazine compounds as cell cycle inhibitors” (2014).

Sequences of proteins named here, by UniProt entry; tags and fusion partners are left off.
UniProt Q00534, whole entry: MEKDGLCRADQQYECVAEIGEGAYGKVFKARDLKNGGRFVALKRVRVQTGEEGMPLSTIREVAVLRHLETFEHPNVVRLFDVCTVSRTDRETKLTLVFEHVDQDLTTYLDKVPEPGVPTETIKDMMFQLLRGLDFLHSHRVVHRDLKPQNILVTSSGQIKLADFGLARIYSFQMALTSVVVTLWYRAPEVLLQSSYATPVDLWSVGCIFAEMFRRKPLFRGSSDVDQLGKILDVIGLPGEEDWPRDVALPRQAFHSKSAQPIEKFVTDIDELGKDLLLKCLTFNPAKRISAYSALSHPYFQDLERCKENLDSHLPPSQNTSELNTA

For orientation: IC50 means the concentration needed to halve the response being measured.

Structures are written as SMILES.

This assay addresses Cyclin-dependent kinase 6 (Homo sapiens, UniProt Q00534). The assay is described as follows: In Vitro Assay: The Cdk4 and Cdk6 inhibitory activity of the compounds is measured with a kinase inhibition assay using recombinant Cdk4/CyclinD1 or Cdk6/CyclinD3 protein complexes. The protein substrate used in the assay is the retinoblastoma protein (Rb). The kinase reactions are carried out in a 96-well filter plate (MSDV N6B50, Millipore). […] The mixture is incubated at room temperature for 1 hour and the proteins precipitated with an equal volume of 20% TCA. The plates are washed with 10% TCA according to the manufacturer's instruction and dried at room temperature. The amount of the phosphorylated Rb is determined with a TopCount (PerkinElmer).

With `COCCN1CCN(c2ccc(Nc3ncc4c5ccncc5n(C5CCCC5)c4n3)nc2)CC1`, the IC50 amounted to 4.9 nM.
